Among the data in PubChem BioAssay AID1851 (National Center for Advancing Translational Sciences (NCATS), 2009) are AC50 values, retold here.

By UniProt entry, the sequences of proteins in these tests, tags left out.
UniProt P05177, whole entry, looked up: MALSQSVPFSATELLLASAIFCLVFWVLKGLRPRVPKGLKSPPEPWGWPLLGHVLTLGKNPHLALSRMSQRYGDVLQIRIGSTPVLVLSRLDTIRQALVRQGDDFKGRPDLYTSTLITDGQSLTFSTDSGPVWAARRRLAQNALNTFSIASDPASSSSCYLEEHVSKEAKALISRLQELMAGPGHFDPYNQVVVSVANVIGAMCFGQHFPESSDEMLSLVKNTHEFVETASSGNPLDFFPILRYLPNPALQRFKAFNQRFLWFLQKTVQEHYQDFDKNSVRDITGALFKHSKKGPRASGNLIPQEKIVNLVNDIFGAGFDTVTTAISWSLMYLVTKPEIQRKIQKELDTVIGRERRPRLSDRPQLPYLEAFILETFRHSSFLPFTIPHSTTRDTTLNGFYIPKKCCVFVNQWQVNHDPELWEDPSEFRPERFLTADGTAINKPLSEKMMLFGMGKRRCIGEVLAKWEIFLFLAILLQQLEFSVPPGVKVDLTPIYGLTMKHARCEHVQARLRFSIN

Structures are written as SMILES. Only a part is listed here, and it is no random draw. Records with an inconclusive call do not appear. Activity calls are given as the source filed them. The call rests on the fitted dose curve; in most records, active means well fitted curve in the direction sought with a large enough effect; inconclusive means small, poorly fitted or top-dose-only effect, or effect the other way; inactive means no such curve, though single readings can be large or run the other way.

The test concerns the target Cytochrome P450 1A2 (Homo sapiens) (UniProt P05177). Briefly: Cytochrome panel assay with activity outcomes. The conditions noted are these: recombinant CYP, pro-luciferin dealkylation, luminescence; p450-cyp1a2.
With `COc1cc(N[C@@H](C)CCCN)c2ncccc2c1`, the half-maximal activity concentration (AC50) was active: 200 nM.

One may read the AC50 as the midpoint of the concentration-response curve, whichever way the signal moves.
